Drawing on ChEMBL document CHEMBL4011609, “Discovery of novel BRD4 inhibitors by high-throughput screening, crystallography, and cell-based assays” (Bioorg Med Chem Lett, 2017), this text covers Activity for one compound.

For assay [1], the system named is MV4-11. As to the kind of experiment: Antiproliferative activity against human MV4-11 cells after 3 days by Alamar blue assay. It counts as functional, cell-based. For orientation: Resazurin is reduced to fluorescent resorufin, in cell work by metabolically active cells.
Assay [2] concerns MV4-11. As to the kind of experiment: Antiproliferative activity against human MV4-11 cells after 7 days by Alamar blue assay. It counts as functional, cell-based.

`CN(CCCNc1cc(=O)oc2ccccc12)C(=O)c1cccs1`: the Activity result in assay [1] and in assay [2] was “Dose-dependent effect” each time.
